Data from publication PMC5549732, “Fluorescence imaging of bombesin and transferrin receptor expression is comparable to ^18F-FDG PET in early detection of sorafenib-induced changes in tumor metabolism” (PLoS ONE, 2017).

By UniProt entry, the sequences of proteins in these tests, tags left out.
UniProt P02786, whole entry: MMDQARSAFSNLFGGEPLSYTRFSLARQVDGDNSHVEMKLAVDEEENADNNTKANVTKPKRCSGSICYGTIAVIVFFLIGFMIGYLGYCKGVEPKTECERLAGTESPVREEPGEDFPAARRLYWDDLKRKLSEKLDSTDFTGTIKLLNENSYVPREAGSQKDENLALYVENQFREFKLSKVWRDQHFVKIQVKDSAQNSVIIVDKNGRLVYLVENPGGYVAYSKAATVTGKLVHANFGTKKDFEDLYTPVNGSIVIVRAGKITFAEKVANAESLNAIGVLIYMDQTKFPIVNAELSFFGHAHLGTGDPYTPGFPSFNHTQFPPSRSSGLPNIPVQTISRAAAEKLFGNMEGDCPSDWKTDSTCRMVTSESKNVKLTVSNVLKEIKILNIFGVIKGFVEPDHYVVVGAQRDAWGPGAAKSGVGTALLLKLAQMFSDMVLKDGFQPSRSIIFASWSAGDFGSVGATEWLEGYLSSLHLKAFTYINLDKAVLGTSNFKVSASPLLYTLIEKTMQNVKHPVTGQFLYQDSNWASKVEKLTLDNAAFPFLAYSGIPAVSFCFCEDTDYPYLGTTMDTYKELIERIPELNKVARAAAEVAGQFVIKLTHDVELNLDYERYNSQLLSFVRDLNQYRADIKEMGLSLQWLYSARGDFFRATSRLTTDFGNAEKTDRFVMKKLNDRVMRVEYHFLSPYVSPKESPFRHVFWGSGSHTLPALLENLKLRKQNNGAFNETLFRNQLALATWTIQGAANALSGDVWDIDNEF

Target: T1, transferrin receptor (Homo sapiens, UniProt P02786)
T1 construct: endogenous in cells; host or cells: HT-29 human colon cancer cells
Experiment: In vitro selectivity of TfV-750 labeling of HT-29 cells (flow cytometry, fluorescence microscopy)
Format: cell-based
Details: HT-29 human colorectal cells; 1 μM probe, 1 h at room temperature; flow cytometry and fluorescence microscopy
Method: The molecular weight of TfV-750 is approximately 106,000 g/mol, with an excitation/emission profile determined as 750/770 nm (S6 Fig). Selectivity was assessed in vitro by flow cytometry and fluorescence microscopy using HT-29 human colorectal cells; fluorescence signal on TfV-750-labeled cells was ~15X greater than when 100 μM unlabeled recombinant transferrin was used to block labeling (S7 Fig). Plasma pharmacokinetics of TfV-750 was assessed in CD-1 mice. Animals were bled at indicated times, and plasma fluorescence was determined using a microplate assay. […] The probe has good tissue penetration into tumors, as its binding pattern in tumor sections (using a 645 nm FLI surrogate to improve microscopy imaging) correlates well with the transferrin receptor expression on cancer cells and is not associated with the tumor vasculature (S10 Fig).
Supplementary file pone.0182689.s007.tif: S7 Fig Specific binding of TfV-750 to transferrin receptor on cancer cells. A: HT-29 cells (human colon cancer tumor line) were incubated with 1 μM TfV-750 for 1 h at room temperature and assessed by flow cytometry, showing effective uptake in the tumor cells. […] C: Generation of cellular microscopy images required the use of a 645 nm fluorochrome-labeled transferrin to more sensitively detect cellular fluorescence by microscopy. […]

TfV-750: PEGylated recombinant transferrin with a NIR fluorescent reporter (ex/em 750/770 nm); transferrin receptor imaging probe
fluorescence signal on labeled cells relative to block with 100 μM unlabeled recombinant transferrin: ~ 15 X
